Measurements reported in article PMC9694488, “Amyloid beta and its naturally occurring N-terminal variants are potent activators of human and mouse formyl peptide receptor 1” (The Journal of Biological Chemistry, 2022).

Sequences of proteins named here, by UniProt entry; tags and fusion partners are left off. A change or cut given only in a name is not applied to a line headed by its entry.
UniProt P05067: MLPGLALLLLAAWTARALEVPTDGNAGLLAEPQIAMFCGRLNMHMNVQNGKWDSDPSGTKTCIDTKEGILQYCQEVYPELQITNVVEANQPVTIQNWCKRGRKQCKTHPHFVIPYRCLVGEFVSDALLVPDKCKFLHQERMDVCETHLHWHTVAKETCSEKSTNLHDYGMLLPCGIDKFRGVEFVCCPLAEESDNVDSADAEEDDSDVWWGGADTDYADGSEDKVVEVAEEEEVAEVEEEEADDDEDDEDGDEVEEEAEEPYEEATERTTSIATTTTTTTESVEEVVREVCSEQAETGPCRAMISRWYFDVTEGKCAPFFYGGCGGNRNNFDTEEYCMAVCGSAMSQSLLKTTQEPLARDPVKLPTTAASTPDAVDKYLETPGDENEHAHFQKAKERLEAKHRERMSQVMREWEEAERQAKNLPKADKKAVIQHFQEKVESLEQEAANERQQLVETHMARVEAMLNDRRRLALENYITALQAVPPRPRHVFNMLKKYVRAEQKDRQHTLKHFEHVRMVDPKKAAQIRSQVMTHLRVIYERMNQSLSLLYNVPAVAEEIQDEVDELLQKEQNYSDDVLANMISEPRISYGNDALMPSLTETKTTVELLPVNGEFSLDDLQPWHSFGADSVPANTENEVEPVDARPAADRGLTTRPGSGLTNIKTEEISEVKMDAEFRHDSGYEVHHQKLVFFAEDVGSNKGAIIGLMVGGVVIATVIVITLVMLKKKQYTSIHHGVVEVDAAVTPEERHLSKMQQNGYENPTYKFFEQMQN

Test system: human and mouse FPRs
Assay: Ca2+ imaging, FPR-transfected HEK293T (several human and mouse FPRs taken together)
Assay type: cell-based
Settings: 10 μM; n = 3, N = 1

Row | Substance | Ca2+ mobilization, human and mouse FPRs
1 | Aβ1-10: C-terminally abridged Aβ fragment, from Anaspec/MoBiTec (DAEFRHDSGY; Amyloid-beta protein 42; UniProt P05067 672-681, looked up, fragment) | failed to induce any Ca^2+ mobilization
2 | Aβ1-16: C-terminally abridged Aβ fragment, from Anaspec/MoBiTec (DAEFRHDSGYEVHHQK; Amyloid-beta protein 42; UniProt P05067 672-687, looked up, fragment) | failed to induce any Ca^2+ mobilization
